The list shows a part of the results, in another mix than the full data. Calls of active or inactive are those of the source.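 Rule for the calls: active = lowest replicate activation of at least 40%, so every replicate reaches that level; inactive = the rest.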
Test: primary screen for activators of insulin secretion dependent on glucose, INS-1E cells, GLuc reporter luminescence (AID 743287);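 note: 0% = median of neutral control wells and 100% = median of IBMX positive control wells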
Details: INS-1E GLuc reporter insulin secretion, 2-3 h, at 16.6 µM, active compounds read high

Structure (SMILES) | activation
CN(C)C1(CNC(=O)c2ccc(S(C)(=O)=O)cc2)CCCCC1 | inactive: 3.44%
O=C(/C=C/c1ccccc1)OC1CN2CCC1CC2 (centres undefined) | inactive: -8.75%
CCCC1OP(=O)(Nc2ccccc2)OCC1CC (centres undefined) | inactive: -8.34%
CC1CCC(C(C)C)C(OP(=O)(Nc2ccccn2)c2ccccc2)C1 (centres undefined) | inactive: -41.9%
Cc1ccc(C(=O)OC2CN3CCC2CC3)cc1 (centres undefined) | inactive: 12.2%
Nc1cccc([As](=O)(O)c2ccccc2)c1 | inactive: 13%
NS(=O)(=O)c1cccc(NC(=O)COC(=O)C(O)(c2ccccc2)c2ccccc2)c1 | inactive: -9.53%
O=[As](O)(c1cccs1)c1cccs1 | inactive: -5.19%
Cc1ccc(S(=O)(=O)N(CCCN)CCCc2c(C)nc(N)[nH]c2=O)cc1 | inactive: 0.178%
O=P1(N(CCCl)CCCl)NCCC(C(F)(F)F)O1 (centres undefined) | inactive: 4.59%
CCC1=CC2Cc3nc4ccc(Cl)cc4c(N)c3C(C1)C2 (centres undefined) | inactive: -11.2%
CCOP(=O)(NC(=NC(C)c1ccccc1)NC(C)c1ccccc1)OCC (centres undefined) | inactive: -9.51%
CCOP(=O)(Nc1ccc(C)cn1)OCC | inactive: 5.64%
CC(C)/C=N\N=C(\N)N[N+](=O)[O-] | inactive: 1.35%
CN(C(=O)Cc1ccc(Cl)c(Cl)c1)C1CCCC[C@@H]1N1CCCC1 (some centres undefined) | inactive: 1.24%
COc1ccccc1CNC(=O)COC(=O)C(O)(c1ccccc1)c1ccccc1 | inactive: 2.4%
O=[As](O)(c1cccc(O)c1)c1cccc(O)c1 | inactive: 0.496%
Cc1cccc(OCC(=O)OC2CN3CCC2CC3)c1 (centres undefined) | inactive: 0.794%
O=C(OC1CN2CCC1CC2)c1ccc(Cl)cc1 (centres undefined) | inactive: 1.22%
COc1cc(C(=O)NCC2(N3CCOCC3)CCCCC2)cc(Cl)c1OC(C)C | inactive: -9.86%
O=[As](O)(O)c1cccnc1 | inactive: 17.9%
CS(=O)(=O)c1ccc(Cl)c(NC(=O)COC(=O)C(O)(c2ccccc2)c2ccccc2)c1 | inactive: -19.2%
COc1cc(C2NCCC3(OCCO3)C2(C)C)cc(OC)c1OC (centres undefined) | inactive: 27.1%
CCOP(=O)(Nc1cccc2ccccc12)OCC | inactive: 12%
Cc1ccc(NCCc2c([N+](=O)[O-])cc([N+](=O)[O-])cc2[N+](=O)[O-])cc1 | inactive: -3.4%
Nc1cccc2c([As](=O)(O)O)cccc12 | inactive: 9.89%
CCCOP(=S)(Nc1nc(N)cc(=O)[nH]1)OCCC | inactive: -5.52%
Nc1ccccc1[As](=O)(O)c1ccccc1 | inactive: 14.9%
O=C(O)COc1ccc([As](=O)(O)O)cc1[N+](=O)[O-] | inactive: -6.13%

— PubChem BioAssay AID743287 (Broad Institute, 2014)
